Chains of the proteins cited; added tags and fusions are not shown. Lines headed by an entry give the natural chain unless they say otherwise; changes in a name come on top.
UniProt P04818: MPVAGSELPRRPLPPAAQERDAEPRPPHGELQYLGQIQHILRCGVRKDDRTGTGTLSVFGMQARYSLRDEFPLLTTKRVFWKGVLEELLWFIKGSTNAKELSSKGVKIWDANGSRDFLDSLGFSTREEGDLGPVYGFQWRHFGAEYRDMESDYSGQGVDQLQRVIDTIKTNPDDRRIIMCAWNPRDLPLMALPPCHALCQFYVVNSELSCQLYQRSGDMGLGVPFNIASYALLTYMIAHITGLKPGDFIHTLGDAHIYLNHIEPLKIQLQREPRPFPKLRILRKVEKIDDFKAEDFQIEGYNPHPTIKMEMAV

According to paper PMC6193938, “Characterization of a novel AICARFT inhibitor which potently elevates ZMP and has anti-tumor activity in murine models” (Scientific Reports, 2018):

Target: T1, TS (Homo sapiens, UniProt P04818)
T1 construct: made in house; host or cells: E. coli BL21 (DE3)
Assay: Folate dependent enzyme assay, TMP response (LC-MS)
Type: biochemical
Procedure: The human MTHFD2 (accession number: NM_006636.3) and MTHFD2L (accession number: NM_001144978.1) cDNAs were synthesized at GenScript. […] Bacterial BL21 (DE3) (Novagen) was used as an expression host, and protein purification is described in supplemental material.
Catalytic activity was assayed under the listed reaction conditions using a liquid chromatograph and either fluorescence or mass spectrometric detection as indicated. Reactions were carried out at RT for the reaction times given. The % response was fit to a four-parameter logistic equation using ACTIVITYBASE 4.0 to determine IC50 values.

IC50: 580 nM
Compound: Nc1nc2[nH]cc(CCc3ccc(C(=O)N[C@@H](CCC(=O)O)C(=O)O)cc3)c2c(=O)[nH]1 [pemetrexed]
